Results reported in PubChem BioAssay AID588674 (Broad Institute, 2011).
Only a part is listed here, and it is no random draw. Activity calls are given as the source filed them.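 The calls were made as follows: active = mean inhibition of at least 75% with every replicate also reaching 75%; inconclusive = mean inhibition at least 75% but some replicate below; inactive = mean inhibition below 75%.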

Assay: Shn3 3'UTR reporter decrease in osteoblasts – cell-based, Clone20 osteoblasts, firefly luciferase, set 2, Schnurri-3 inhibitor project, primary screen (AID 588674);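 also: 0% = median of neutral control wells and 100% = pilot-screen positive control compound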
Details: Clone20 osteoblast Shn3 3'UTR firefly luciferase, 24 h; at 12.5 µM; stronger effect = higher value

SMILES | inhibition
CC(C)c1ccc(NC2CCN(C(=O)OC(C)(C)C)CC2)cc1 | inactive: -31.5%
CCCCn1nnnc1C(c1ccccc1OC(F)(F)F)N1CCC(n2c(=O)[nH]c3ccccc32)CC1 (stereo not drawn) | inactive: 11.2%
COc1ccc(CN(CCCl)CCCl)cc1Cl | inactive: 7.01%
CN(C)c1cccc(C(=O)NCC2(N3CCCCC3)CCCCC2)c1 | inactive: 8.88%
COc1cc(OC)c(C(=O)NCC2(N(C)C)CCCCC2)cc1OC | inactive: 9.25%
O=C(NCC1(N2CCOCC2)CCCCC1)c1cc(F)c(F)cc1Cl | inactive: 8.22%
CCC(c1nnnn1C(C)(C)C)N1CCC(n2c(=O)[nH]c3ccccc32)CC1 (stereo not drawn) | inactive: 16.7%
CCCCn1nnnc1C(c1ccnc2ccccc12)N1CCC(n2c(=O)[nH]c3ccccc32)CC1 (stereo not drawn) | inactive: 9.26%
CN1CCC(Nc2cccc(F)c2)CC1 | inactive: -9.05%
O=C(NCC1(N2CCCCC2)CCCCC1)c1cncc(Br)c1 | inactive: 10.2%
COc1ccc(C(c2nnnn2C2CCCC2)N2CCC(n3c(=O)[nH]c4ccccc43)CC2)cc1 (stereo not drawn) | inactive: -14.3%
Cc1ccc(C(=O)NCC2(N(C)C)CCCCC2)o1 | inactive: 0.293%
CCCOc1ccc(C(=O)NCC2(N(C)C)CCCCC2)cc1OC | inactive: -12%
CC(C)(C)n1nnnc1C(c1ccccc1OC(F)(F)F)N1CCC(n2c(=O)[nH]c3ccccc32)CC1 (stereo not drawn) | inactive: 17.5%
O=C(NCC1(N2CCCCC2)CCCCC1)c1ccc(OC(F)F)cc1 | inactive: -14.1%
CCN1CCC(Nc2ccc(Cl)cc2)CC1 | inactive: -0.377%
O=c1[nH]c2ccccc2n1C1CCN(C(c2ccccc2OC(F)(F)F)c2nnnn2C2CCCC2)CC1 (stereo not drawn) | inactive: -11.5%
N#CC1(Nc2ccccc2)CCN(CCc2ccccc2)CC1 | inactive: 21%
CSc1ccc(C(=O)NCC2(N3CCOCC3)CCCCC2)cc1 | inactive: 1.61%
O=C(NCC1(N2CCCCC2)CCCCC1)c1cccc([N+](=O)[O-])c1 | inactive: -12.8%
O=C(NCC1(N2CCCCC2)CCCCC1)c1cccc(C(F)(F)F)c1 | inactive: 0.239%
O=C(NCC1(N2CCOCC2)CCCCC1)c1cc(=O)[nH]c2ccccc12 | inactive: -9.15%
COc1cc(C(=O)NCC2(N3CCCCC3)CCCCC2)ccc1OC(F)F | inactive: 22.9%
CC(C)c1ccc(C(=O)NCC2(N3CCOCC3)CCCCC2)cc1 | inactive: -15.8%
COc1ccc(NC2CCN(C(=O)OC(C)(C)C)CC2)cc1 | inactive: 17.4%
CN1CCN(CCOC(=O)C(O)(c2ccccc2)c2ccccc2)CC1 | inactive: 0.597%
CCCCn1nnnc1C(c1cccc2ccccc12)N1CCC(n2c(=O)[nH]c3ccccc32)CC1 (stereo not drawn) | inactive: -5.07%

SMILES | inhibition
CC(C)(C)n1nnnc1C(c1ccccc1)N1CCC(n2c(=O)[nH]c3ccccc32)CC1 (stereo not drawn) | inactive: -11.9%
O=C1CCN(Cc2ccccc2)CC1 | inactive: -11.8%
CCOc1ccc(C)cc1CN(CCCl)CCCl | inactive: -15.3%
CCCCOc1ccc(C(=O)NCC2(N3CCOCC3)CCCCC2)cc1 | inactive: 17.7%
O=P1(N(CCCl)CCCl)SCCCS1 | inactive: -17.9%
CCCCn1nnnc1C(c1cc2ccccc2o1)N1CCC(n2c(=O)[nH]c3ccccc32)CC1 (stereo not drawn) | inactive: 6.58%
O=C(NCC1(N2CCCCC2)CCCCC1)c1ccc(F)cc1 | inactive: 12.1%
CCOC(=O)N1CCC(Nc2ccc(F)cc2)CC1 | inactive: 0.447%
COc1ccc(NC2CCN(CCc3ccccc3)CC2)c(OC)c1 | inactive: -9.3%
O=c1[nH]c2ccccc2n1C1CCN(C(c2ccccc2)c2nnnn2C2CCCCC2)CC1 (stereo not drawn) | inactive: 14.6%
CCOC(=O)N1CCC(Nc2cccc(C)c2)CC1 | inactive: -37.8%
COc1cc(C(=O)NCC2(N(C)C)CCCCC2)ccc1OC(F)F | inactive: -7.97%
O=c1[nH]c2ccccc2n1C1CCN(C(c2cccc3ccccc23)c2nnnn2C2CCCC2)CC1 (stereo not drawn) | inactive: 9.01%
COc1ccc(C(=O)NCC2(N3CCCCC3)CCCCC2)cc1 | inactive: -0.846%
CC(C)(C)OC(=O)N1CCC(N(C(=O)c2ccccc2)c2ccc(F)cc2)CC1 | inactive: -0.658%
COc1ccc(C(=O)NCC2(N3CCCCC3)CCCCC2)c(OC)c1OC | inactive: 5.84%
CCC(c1nnnn1C1CCCC1)N1CCC(n2c(=O)[nH]c3ccccc32)CC1 (stereo not drawn) | inactive: 13.4%
O=C(NCC1(N2CCCCC2)CCCCC1)c1ccc(=O)[nH]c1 | inactive: -25.3%
O=C(NCC1(N2CCCCC2)CCCCC1)c1cccs1 | inactive: 2.51%
CCCCn1nnnc1C(CC)N1CCC(n2c(=O)[nH]c3ccccc32)CC1 (stereo not drawn) | inactive: 13.1%
CCCCn1nnnc1C(c1cccs1)N1CCC(n2c(=O)[nH]c3ccccc32)CC1 (stereo not drawn) | inactive: -2.17%
CSc1ccccc1C(=O)NCC1(N2CCCCC2)CCCCC1 | inactive: 10.9%
Cc1cccc(NC2(C#N)CCN(Cc3ccccc3)CC2)c1 | inactive: -6.18%
O=C(NCC1(N2CCCCC2)CCCCC1)c1ccc(Cl)nc1 | inactive: -11.4%
O=c1[nH]c2ccccc2n1C1CCN(C(c2ccccc2OC(F)(F)F)c2nnnn2C2CCCCC2)CC1 (stereo not drawn) | inactive: 8.69%
Cc1cc(C)cc(N(C(=O)c2ccccc2)C2CCN(C(=O)OC(C)(C)C)CC2)c1 | inactive: 46.4%
